Read-outs that look alike come from different tables or passages of the source.
Legend:
human PXR = target: T1, human PXR (Homo sapiens, UniProt O75469)
T1 sequence (O75469 1-434): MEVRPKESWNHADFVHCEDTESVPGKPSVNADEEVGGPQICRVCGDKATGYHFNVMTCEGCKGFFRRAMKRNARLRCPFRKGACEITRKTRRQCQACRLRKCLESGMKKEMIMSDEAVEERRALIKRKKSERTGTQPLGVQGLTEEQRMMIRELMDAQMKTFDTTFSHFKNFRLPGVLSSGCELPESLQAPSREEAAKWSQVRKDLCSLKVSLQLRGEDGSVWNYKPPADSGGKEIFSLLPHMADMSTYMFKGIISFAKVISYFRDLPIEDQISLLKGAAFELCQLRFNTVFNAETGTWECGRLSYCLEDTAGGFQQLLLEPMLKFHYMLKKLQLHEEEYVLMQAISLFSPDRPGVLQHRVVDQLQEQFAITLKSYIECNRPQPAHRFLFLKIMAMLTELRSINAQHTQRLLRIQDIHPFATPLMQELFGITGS

zebrafish PXR [1] = target: T2, zebrafish PXR (Danio rerio, UniProt A5WYG8)
T2 sequence (A5WYG8 144-430): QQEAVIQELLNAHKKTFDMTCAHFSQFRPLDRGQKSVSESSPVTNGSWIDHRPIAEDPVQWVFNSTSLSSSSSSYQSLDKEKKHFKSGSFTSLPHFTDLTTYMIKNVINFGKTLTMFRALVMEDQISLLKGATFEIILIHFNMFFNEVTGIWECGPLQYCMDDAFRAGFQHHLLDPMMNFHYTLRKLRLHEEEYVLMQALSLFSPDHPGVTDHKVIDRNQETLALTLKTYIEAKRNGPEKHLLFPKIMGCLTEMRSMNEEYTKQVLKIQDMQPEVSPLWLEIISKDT

zebrafish PXR [2] = target: T2, zebrafish PXR; assay: cell-based

SMILES | zfPXR Efficacy (zebrafish PXR [1]) | EC50 (zebrafish PXR [2]; zfPXR Activity) [µM] | zfPXR Efficacy (zebrafish PXR [1]; zebrafish) | further results
COC(=O)CC[C@@H](C)[C@H]1CC[C@H]2[C@@H]3CC[C@@H]4C[C@H](OC(C)=O)CC[C@]4(C)[C@H]3CC[C@]12C [BI50, 5β-Cholanic acid-3α-acetate methyl ester] |  |  |  | hPXR Efficacy (human PXR): 0.49
CC(=O)[C@H]1CC[C@H]2[C@@H]3CC[C@@H]4C[C@H](O)CC[C@]4(C)[C@H]3CC[C@]12C [PR25, 5β-Pregnan-3α-ol-20-one] | 1.22 |  |  | 
C[C@]12CCC(=O)C[C@@H]1CC[C@@H]1[C@@H]2CC[C@]2(C)C(=O)CC[C@@H]12 [AN2, 5α-Androstan-3,17-dione] |  | 3.16 | 0.86 | 
C[C@]12CC[C@H]3[C@@H](CCC4=CC(=O)CC[C@@]43C)[C@@H]1CC[C@@H]2O [AN8, 4-Androsten-17β-ol-3-one] |  | 2.45 | 0.12 | EC50 (zebrafish PXR [2]; Zebrafish PXR EC50 (concentration class, Figure 2B)): < 10 µM
C[C@H](CCC(=O)O)[C@H]1CC[C@H]2[C@@H]3CC[C@@H]4C[C@H](OS(=O)(=O)O)CC[C@]4(C)[C@H]3CC[C@]12C [BI41, 5β-Cholanic acid-3α-sulfate] | 0.24 |  |  | hPXR Efficacy (human PXR): 0.69
CCOP(=S)(OCC)Oc1nc(Cl)c(Cl)cc1Cl [MI10, Chlorpyrifos] |  | 3.63 | 0.88 | 
C[C@]12CC[C@H]3[C@@H](CCC4=CC(=O)CC[C@@]43C)[C@@H]1CC[C@H]2O [AN15, 4-Androsten-17α-ol-3-one] |  |  |  | zfPXR Activity (zebrafish PXR [1]): None
CC(=O)[C@H]1CC[C@H]2[C@@H]3CC[C@H]4C[C@H](O)CC[C@]4(C)[C@H]3CC[C@]12C [PR14, 5α-Pregnan-3α-ol-20-one] |  | 3.98 | 0.30 | 
CC(=O)O[C@@H]1CC[C@@]2(C)[C@H](CC[C@@H]3[C@@H]2CC[C@]2(C)[C@@H]([C@H](C)CCC(=O)O)CC[C@@H]32)C1 [BI49, 5β-Cholanic acid-3α-acetate] | 0.10 |  |  | 
